Measurements taken from patent US12595269B2, “Morpholine-like monoamine releasers” (Solvonis Therapeutics Ireland Holdings Limited, priority 2022, dated 2026).

Sequences of proteins named here, by UniProt entry; tags and fusion partners are left off.
UniProt P31652, whole entry: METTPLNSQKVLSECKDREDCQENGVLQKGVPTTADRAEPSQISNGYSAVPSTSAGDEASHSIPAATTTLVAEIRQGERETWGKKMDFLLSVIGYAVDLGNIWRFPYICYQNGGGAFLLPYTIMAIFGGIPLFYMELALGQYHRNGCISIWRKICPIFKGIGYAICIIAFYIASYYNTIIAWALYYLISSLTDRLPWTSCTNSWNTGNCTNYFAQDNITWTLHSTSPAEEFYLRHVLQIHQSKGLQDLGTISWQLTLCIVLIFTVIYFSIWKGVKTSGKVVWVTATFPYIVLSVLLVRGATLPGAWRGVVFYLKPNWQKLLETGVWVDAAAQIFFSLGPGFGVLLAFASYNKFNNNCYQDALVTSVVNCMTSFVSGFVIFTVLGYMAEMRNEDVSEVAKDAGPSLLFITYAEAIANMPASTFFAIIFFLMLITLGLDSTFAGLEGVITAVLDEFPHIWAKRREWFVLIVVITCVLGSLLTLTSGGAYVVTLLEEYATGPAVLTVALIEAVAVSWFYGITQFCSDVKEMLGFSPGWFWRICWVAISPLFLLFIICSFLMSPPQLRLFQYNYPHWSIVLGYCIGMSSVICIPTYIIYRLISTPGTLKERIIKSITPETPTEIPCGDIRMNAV
UniProt P23977, whole entry: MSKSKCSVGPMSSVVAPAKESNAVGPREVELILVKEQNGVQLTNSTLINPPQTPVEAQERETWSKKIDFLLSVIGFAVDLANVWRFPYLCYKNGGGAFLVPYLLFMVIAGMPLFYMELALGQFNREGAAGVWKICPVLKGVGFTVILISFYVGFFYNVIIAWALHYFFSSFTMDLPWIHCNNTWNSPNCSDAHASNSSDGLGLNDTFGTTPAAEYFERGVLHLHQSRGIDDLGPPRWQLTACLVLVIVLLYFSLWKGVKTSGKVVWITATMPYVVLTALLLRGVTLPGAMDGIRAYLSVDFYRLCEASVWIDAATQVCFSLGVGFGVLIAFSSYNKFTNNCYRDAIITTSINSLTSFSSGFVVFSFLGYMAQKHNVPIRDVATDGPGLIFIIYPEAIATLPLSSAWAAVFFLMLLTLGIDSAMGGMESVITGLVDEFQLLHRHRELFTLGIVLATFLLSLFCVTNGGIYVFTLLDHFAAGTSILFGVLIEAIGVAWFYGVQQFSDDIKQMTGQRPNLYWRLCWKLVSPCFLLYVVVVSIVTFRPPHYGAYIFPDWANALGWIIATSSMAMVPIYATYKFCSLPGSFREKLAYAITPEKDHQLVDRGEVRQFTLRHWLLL
UniProt Q01959, whole entry: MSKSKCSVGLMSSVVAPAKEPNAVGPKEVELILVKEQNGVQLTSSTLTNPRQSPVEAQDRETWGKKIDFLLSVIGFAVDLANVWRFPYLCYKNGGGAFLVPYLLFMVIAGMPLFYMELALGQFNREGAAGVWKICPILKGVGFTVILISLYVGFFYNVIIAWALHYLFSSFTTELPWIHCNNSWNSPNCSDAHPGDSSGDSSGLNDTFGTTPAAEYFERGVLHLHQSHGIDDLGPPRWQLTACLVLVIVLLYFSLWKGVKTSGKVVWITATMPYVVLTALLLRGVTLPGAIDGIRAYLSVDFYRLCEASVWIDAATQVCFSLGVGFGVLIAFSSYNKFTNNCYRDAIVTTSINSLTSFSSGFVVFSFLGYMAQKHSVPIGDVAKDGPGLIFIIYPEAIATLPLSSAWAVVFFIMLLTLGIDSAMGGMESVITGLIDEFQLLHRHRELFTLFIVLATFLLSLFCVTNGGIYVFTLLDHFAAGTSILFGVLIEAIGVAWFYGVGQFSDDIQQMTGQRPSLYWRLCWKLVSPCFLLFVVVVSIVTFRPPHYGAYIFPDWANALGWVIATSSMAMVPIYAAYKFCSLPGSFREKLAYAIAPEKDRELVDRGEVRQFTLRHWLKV
UniProt P31645, whole entry: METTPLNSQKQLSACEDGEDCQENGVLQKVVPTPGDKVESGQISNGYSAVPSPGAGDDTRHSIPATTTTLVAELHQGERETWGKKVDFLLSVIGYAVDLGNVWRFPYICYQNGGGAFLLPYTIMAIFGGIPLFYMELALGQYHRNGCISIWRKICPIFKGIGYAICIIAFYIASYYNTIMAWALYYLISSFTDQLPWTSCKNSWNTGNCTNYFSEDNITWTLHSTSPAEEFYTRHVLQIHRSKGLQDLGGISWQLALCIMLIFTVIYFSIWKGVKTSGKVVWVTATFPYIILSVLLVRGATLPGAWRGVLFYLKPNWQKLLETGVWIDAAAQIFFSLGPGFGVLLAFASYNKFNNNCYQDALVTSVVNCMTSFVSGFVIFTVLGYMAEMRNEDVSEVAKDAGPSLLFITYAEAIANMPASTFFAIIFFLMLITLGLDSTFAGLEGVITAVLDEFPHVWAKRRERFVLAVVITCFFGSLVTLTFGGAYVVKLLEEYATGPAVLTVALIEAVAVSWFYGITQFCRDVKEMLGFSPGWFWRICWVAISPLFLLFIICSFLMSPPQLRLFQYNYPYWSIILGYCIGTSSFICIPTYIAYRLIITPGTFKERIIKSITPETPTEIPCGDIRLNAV
UniProt P08183, whole entry: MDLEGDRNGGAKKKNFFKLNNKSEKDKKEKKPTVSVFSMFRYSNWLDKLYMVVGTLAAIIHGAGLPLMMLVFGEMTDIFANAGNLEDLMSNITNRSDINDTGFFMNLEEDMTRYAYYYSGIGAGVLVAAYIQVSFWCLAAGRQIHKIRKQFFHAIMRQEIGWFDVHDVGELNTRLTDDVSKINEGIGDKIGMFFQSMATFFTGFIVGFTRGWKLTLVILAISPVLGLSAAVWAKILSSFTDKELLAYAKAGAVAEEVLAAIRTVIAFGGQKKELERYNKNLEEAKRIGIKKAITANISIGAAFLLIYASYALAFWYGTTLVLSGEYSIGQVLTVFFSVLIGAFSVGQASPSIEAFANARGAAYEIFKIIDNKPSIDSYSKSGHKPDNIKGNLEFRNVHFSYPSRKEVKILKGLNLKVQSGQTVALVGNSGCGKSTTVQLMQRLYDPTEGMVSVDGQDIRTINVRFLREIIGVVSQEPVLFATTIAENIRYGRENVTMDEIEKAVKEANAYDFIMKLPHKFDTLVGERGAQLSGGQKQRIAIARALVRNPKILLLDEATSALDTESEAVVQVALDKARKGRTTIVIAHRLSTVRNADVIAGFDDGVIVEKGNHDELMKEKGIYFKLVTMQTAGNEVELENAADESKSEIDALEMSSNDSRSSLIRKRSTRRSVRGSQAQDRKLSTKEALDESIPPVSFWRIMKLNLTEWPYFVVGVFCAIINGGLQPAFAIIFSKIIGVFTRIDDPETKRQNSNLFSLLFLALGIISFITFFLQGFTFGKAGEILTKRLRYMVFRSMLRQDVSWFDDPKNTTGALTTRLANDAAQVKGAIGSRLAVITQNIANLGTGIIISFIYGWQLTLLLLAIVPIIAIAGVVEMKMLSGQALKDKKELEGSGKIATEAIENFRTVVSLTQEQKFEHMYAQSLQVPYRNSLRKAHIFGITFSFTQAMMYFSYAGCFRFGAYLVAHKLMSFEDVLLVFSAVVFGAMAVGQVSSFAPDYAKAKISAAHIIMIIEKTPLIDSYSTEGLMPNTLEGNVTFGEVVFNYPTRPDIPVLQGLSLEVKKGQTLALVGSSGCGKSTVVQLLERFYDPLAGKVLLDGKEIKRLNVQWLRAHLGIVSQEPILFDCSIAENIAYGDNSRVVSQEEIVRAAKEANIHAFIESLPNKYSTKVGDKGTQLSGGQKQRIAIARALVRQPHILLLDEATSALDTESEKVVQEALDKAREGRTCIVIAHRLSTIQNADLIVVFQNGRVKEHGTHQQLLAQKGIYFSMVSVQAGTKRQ

Columns and labels:
[1] = In vitro intrinsic clearance in human liver microsomes
[2] = Lipophilicity by Chromatographic Hydrophobicity Index (CHI LogD); format: physicochemical; settings: pH 7.4, HPLC-UV
Method: Methods and Procedure: The methods employed herein comply with previously described procedures to assure data integrity and adherence to GLP regulations. Briefly, a CHI value was determined by comparing the retention time of a test compound to a linear curve based on a set of calibration compounds with known CHI values. The resultant CHI value can be further converted to a CHI Log D value using an established linear regression equation.
Reference compounds with known CHI values, including theophylline, phenyltetrazole, benzymidazole, colchicine, phenyltheophylline, acetophenone, indole, propiophenone, butyrophenone, valerophenone, were used to create a calibration line. Test compounds (10 mM) were prepared in DMSO on the same day of the experiment, when feasible. For sample preparation, 10 μL of test solution was diluted with 190 μL of a solution of Ammonium Acetate solution (50 mM) and Acetonitrile (1:1) pH7.4, which was then mixed via shaking at room temperature for 10 minutes. Test solutions were compared with the reference compounds via HPLC-UV, as described in Example 19. The gradient was calibrated by determining the retention time of each reference compound on a reverse phase LC system at a pH of 7.4. […]
The test compounds were analyzed on the same system as the test mix. […]

SERT (serotonin release) = SERT (serotonin release) (Rattus norvegicus, UniProt P31652); assay: Serotonin release filtration assay in rat cortex synaptosomes; format: cell-based; settings: % of release by 50 μM MDMA
Method: (§1) Methods and Procedure—Release: The potency of the disclosed compounds for stimulating dopamine (DA) release was measured by an endpoint release filtration assay in a 96-well format using rat synaptosomes, essentially as described by Sandtner et al., Mol. Pharmacol., 2016; 89(1):165-75, and Baumann et al., Neuropsychopharmacol., 2013; 38:552-562, with some variations.
(§2) One male rat was sacrificed and striatum/cortex regions were dissected over ice. The striatum portions were weighed and put in a glass tube for homogenization, containing ice-cold 0.32 M sucrose (dilution 1:24 w/v), while the frontal cortex tissue was diluted in ice-cold 0.32 M sucrose, 1:20 w/v. Tissues were homogenized and centrifuged for 10 mins at 1000×g. The two supernatants from striatum and cortex (crude synaptosomes) were retained on ice until use.
Test compounds were then serially diluted 1:4 in neat DMSO as concentration-response curves (CRC) of 11 points. […]
The raw data (cpm) from residual radioactivity onto the filter were elaborated for the determination of pEC50/EC50 values. Specifically, the compound effect was expressed as the percent of maximal release obtained with 50 μM MDMA (100% release) in comparison to vehicle (0.5% DMSO, 0% release). […] In each plate, for both 0% and 100% of release, the signal window is monitored performing Z′ calculations using raw data of four replicates. […]

DAT (dopamine release) = DAT (dopamine release) (Rattus norvegicus, UniProt P23977); assay: Dopamine release filtration assay in rat striatal synaptosomes; format: cell-based; settings: % of release by 50 μM MDMA
Method: as §1
as §2, with “The two supernatants from striatum and cortex (crude synaptosomes) were retained on ice until use.” left out
^3H-Dopamine was added to the tube containing the crude striatal synaptosomes preparation, diluted 1:20 (v/v) in complete Krebs-phosphate buffer, and was incubated at RT and gently mixed for 60 minutes. […] The retained radioactivity was counted in a scintillation counter after the addition of 50 μL/well Microscint-20.
The raw data (cpm) from residual radioactivity onto the filter were elaborated for the determination of pEC50/EC50 values. Specifically, the compound effect was expressed as the percent of maximal release obtained with 50 μM MDMA (100% release) in comparison to vehicle (0.5% DMSO, 0% release). […]

MDCKII cells = assay: Apparent permeability (Papp AB) in MDCKII cells; settings: pH 7.4, apical to basolateral, 60 min
[3] = In vitro intrinsic clearance in rat liver microsomes
human DAT = human DAT (Homo sapiens, UniProt Q01959); assay: DAT uptake scintillation proximity assay, inhibition of [3H]-dopamine uptake in hDAT-CHO cells; format: cell-based
Method: (§3) Overview: Eighty-eight compounds were tested in SERT (serotonin transporter) and DAT (dopamine transporter) uptake assays (completed as scintillation proximity assays, or SPAs, in a recombinant CHO cell line). Fifty-two compounds were tested in release assays for 5-HT and DA release in rat synaptosomes.
Methods and Procedure-Uptake: The potency of the compounds described herein for inhibiting DAT function was measured using an uptake assay in a recombinant CHO cell line stably expressing human DAT (hDAT-CHO). Potency was measured in terms of pIC50 by testing for inhibition of [^3H]-dopamine uptake in hDAT-CHO cells in a 384-well format scintillation proximity assay (SPA).
Briefly, on experiment days, hDAT-CHO cells were detached using Versene and added at a density of approximately 300,000 cells/mL to the SPA Mixture, which contains the following components in Assay Buffer (20 mM HEPES, 145 mM NaCl, 5 mM KCl, 2 mM CaCl2, 1 mM MgCl2, 5.5 mM glucose, 0.01% Pluronic F127, pH 7.3): 0.75 mg/mL SPA Imaging beads (RPNQ0001, PerkinElmer), 10 μM pargyline and 80 nM of [^3H]-dopamine (NET673, PerkinEImer). […] Plates were sealed with a Top-seal A and read using a Microbeta counter (PerkinEImer) after 45 minutes of incubation at room temperature. […]

[4] = target: SERT (serotonin transporter) (Homo sapiens, UniProt P31645); assay: SERT uptake scintillation proximity assay, inhibition of [3H]-serotonin uptake in hSERT-CHO cells; format: cell-based
Method: as §3
In addition, hSERT-CHO cells were detached using Versene and added at a density of 150,000 cells/mL to the SPA Mixture, which contains the following components in the Assay Buffer described above: 0.5 mg/mL SPA Imaging beads (RPNQ0001, PerkinElmer), 10 μM pargyline and 35 nM of [^3H]-serotonin (NET498, PerkinElmer). […] Plates were sealed with a Top-seal A and read using a Microbeta counter (PerkinElmer) after 120 minutes of incubation at room temperature.
For both tests, the raw experimental data (cpm) were elaborated for the determination of pIC50/IC50 values as % inhibition of specific uptake. Concentration-response curves of MDMA, MDDMA, citalopram and GBR-12909 were used as internal standards in all experiments, and the signal window was monitored in each plate performing Z′ calculations, as described in Zhang et al., J. Biomol. […]

[5] = target: human P-glycoprotein transporter (Homo sapiens, UniProt P08183); assay: P-gp substrate assessment, efflux ratio in MDCKII-MDR1 cells

## Cc1ccc(C23CNC(CO2)C3)cc1C (racemic)
[1]
  Intrinsic clearance (μL/min/mg protein) human: 12 μL/min/mg protein
[2]
  Chi LogD: 0.84
SERT (serotonin release)
  SERT release pEC50: 7.33
DAT (dopamine release)
  DAT release pEC50: 4.71
MDCKII cells
  Papp AB in MDCKII cells: 24.4 ×10⁻⁶ cm/s
[3]
  Intrinsic clearance (μL/min/mg protein) rat: 136 μL/min/mg protein
Human DAT
  DAT update pIC50: 4.77
[4]
  SERT uptake pIC50: 6.52
[5]; P-gp substrate classification, MDCKII-MDR1 cells
  Substrate Classification: pGP-NO
[5]; efflux ratio, P-gp substrate if ratio >2 and reduced by inhibitor
  B/A ratio in MDCKII-MDR1 cells: 0.81
